# Measured values published in patent US11691963B2, “6-heteroaryloxy benzimidazoles and azabenzimidazoles as JAK2 inhibitors” (Ajax Therapeutics, Inc., priority 2020, dated 2023).
# Chains of the proteins cited; added tags and fusions are not shown. Residues count along the entry.
# UniProt O60674, 849-1124 Y1007F/Y1008F: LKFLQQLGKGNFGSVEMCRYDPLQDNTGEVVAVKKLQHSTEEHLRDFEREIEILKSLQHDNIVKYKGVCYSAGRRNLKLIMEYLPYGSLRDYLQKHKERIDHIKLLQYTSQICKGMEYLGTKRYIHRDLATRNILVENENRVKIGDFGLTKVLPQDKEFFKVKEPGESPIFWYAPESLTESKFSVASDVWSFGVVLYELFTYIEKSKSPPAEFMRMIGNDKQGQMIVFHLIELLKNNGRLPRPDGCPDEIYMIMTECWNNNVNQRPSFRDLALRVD
# Target: JAK2 (JH1domain-catalytic, Y1007F,Y1008F) kinase (Homo sapiens (Human), UniProt O60674, Y1007F/Y1008F)
# Assay: biochemical
row,Kd,Compound
1,10 to 50 nM,"CC(=O)Nc1cc(Oc2ccc3nc(Nc4cc5c(c(C(F)(F)F)c4)C(C)(C)N(C)C5=O)n(C)c3c2)ccn1 [Example I-49, N-(4-((1-methyl-2-((1,1,2-trimethyl-3-oxo-7-(trifluoromethyl)isoindolin-5-yl)amino)-1H-benzo[d]imidazol-6-yl)oxy)pyridin-2-yl)acetamide]"
2,10 to 50 nM,"CC(=O)Nc1cc(Oc2cc(C)c3nc(Nc4cc(C5CC5)cn(C)c4=O)n(C)c3n2)ccn1 [Example I-64, N-(4-((2-((5-cyclopropyl-1-methyl-2-oxo-1,2-dihydropyridin-3-yl)amino)-3,7-dimethyl-3H-imidazo[4,5-b]pyridin-5-yl)oxy)pyridin-2-yl)acetamide]"
3,1000 to 5000 nM,"CC(=O)Nc1cc(Oc2ccc3nc(Nc4cc(N5CCC5)cn(C)c4=O)n(C)c3c2)ccn1 [Example I-82, N-(4-((2-((5-(azetidin-1-yl)-1-methyl-2-oxo-1,2-dihydropyridin-3-yl)amino)-1-methyl-1H-benzo[d]imidazol-6-yl)oxy)pyridin-2-yl)acetamide]"
4,50 to 1000 nM,"CC(=O)Nc1cc(Oc2ccc3nc(Nc4cc(C5CC5)nn(C)c4=O)n(C)c3n2)ccn1 [Example I-86, N-(4-((2-((6-cyclopropyl-2-methyl-3-oxo-2,3-dihydropyridazin-4-yl)amino)-3-methyl-3H-imidazo[4,5-b]pyridin-5-yl)oxy)pyridin-2-yl)acetamide]"
5,1000 to 5000 nM,"CC(=O)Nc1cc(Oc2ccc3nc(Nc4cc(C5CC5)c(=O)n(C5CCOCC5)n4)n(C)c3c2)ccn1 [Example I-88, N-(4-((2-((5-cyclopropyl-6-oxo-1-(tetrahydro-2H-pyran-4-yl)-1,6-dihydropyridazin-3-yl)amino)-1-methyl-1H-benzo[d]imidazol-6-yl)oxy)pyridin-2-yl)acetamide]"
6,10 to 50 nM,"CC(=O)Nc1cc(Oc2ccc3nc(Oc4cc(C5CC5)cn(C)c4=O)n(C)c3c2)ccn1 [Example I-89, N-(4-((2-((5-cyclopropyl-1-methyl-2-oxo-1,2-dihydropyridin-3-yl)oxy)-1-methyl-1H-benzo[d]imidazol-6-yl)oxy)pyridin-2-yl)acetamide]"
7,1000 to 5000 nM,"CC(=O)Nc1cc(Oc2ccc3nc(Oc4cccn(C)c4=O)n(C)c3c2)ccn1 [Example I-91, N-(4-((1-methyl-2-((1-methyl-2-oxo-1,2-dihydropyridin-3-yl)oxy)-1H-benzo[d]imidazol-6-yl)oxy)pyridin-2-yl)acetamide]"
8,10 to 50 nM,"CC(=O)Nc1cc(Oc2ccc3nc(Oc4cc(-n5cccn5)cn(C(C)C)c4=O)n(C)c3n2)ccn1 [Example I-93, N-(4-((2-((1-isopropyl-2-oxo-5-(1H-pyrazol-1-yl)-1,2-dihydropyridin-3-yl)oxy)-3-methyl-3H-imidazo[4,5-b]pyridin-5-yl)oxy)pyridin-2-yl)acetamide]"
9,50 to 1000 nM,"CC(=O)Nc1cc(Oc2ccc3nc(Oc4cc(C5CC5)cn(C)c4=O)n(C)c3n2)ccn1 [Example I-95, N-(4-((2-((5-cyclopropyl-1-methyl-2-oxo-1,2-dihydropyridin-3-yl)oxy)-3-methyl-3H-imidazo[4,5-b]pyridin-5-yl)oxy)pyridin-2-yl)acetamide]"
10,10 to 50 nM,"CC(=O)Nc1cc(Oc2cnc3nc(Oc4cc(C5CC5)cn(C)c4=O)n(C)c3c2)ccn1 [Example I-96, N-(4-((2-((5-cyclopropyl-1-methyl-2-oxo-1,2-dihydropyridin-3-yl)oxy)-1-methyl-1H-imidazo[4,5-b]pyridin-6-yl)oxy)pyridin-2-yl)acetamide]"
11,10 to 50 nM,"CC(=O)Nc1cc(Oc2cnc3nc(Oc4cc(C5CC5)cn(C(C)C)c4=O)n(C)c3c2)ccn1 [Example I-97, N-(4-((2-((5-cyclopropyl-1-isopropyl-2-oxo-1,2-dihydropyridin-3-yl)oxy)-1-methyl-1H-imidazo[4,5-b]pyridin-6-yl)oxy)pyridin-2-yl)acetamide]"
12,< 10 nM,"CC(=O)Nc1cc(Oc2cnc3nc(Nc4cc(C(C)(C)C)n([C@H]5CCOC5)n4)n(C)c3c2)ccn1 [Example I-99, (S)—N-(4-((2-((5-(tert-butyl)-1-(tetrahydrofuran-3-yl)-1H-pyrazol-3-yl)amino)-1-methyl-1H-imidazo[4,5-b]pyridin-6-yl)oxy)pyridin-2-yl)acetamide]"
13,< 10 nM,"CC(=O)Nc1cc(Oc2cnc3nc(Nc4cc(C(C)(C)C)n([C@@H]5CCOC5)n4)n(C)c3c2)ccn1 [Example I-100, (R)—N-(4-((2-((5-(tert-butyl)-1-(tetrahydrofuran-3-yl)-1H-pyrazol-3-yl)amino)-1-methyl-1H-imidazo[4,5-b]pyridin-6-yl)oxy)pyridin-2-yl)acetamide]"
14,50 to 1000 nM,"CC(=O)Nc1cc(Oc2ccc3nc(Nc4cc(C(C)(C)C)n(CC5COC5)n4)n(C)c3n2)ccn1 [Example I-101, N-(4-((2-((5-(tert-butyl)-1-(oxetan-3-ylmethyl)-1H-pyrazol-3-yl)amino)-3-methyl-3H-imidazo[4,5-b]pyridin-5-yl)oxy)pyridin-2-yl)acetamide]"
15,< 10 nM,"CC(=O)Nc1cc(Oc2cnc3nc(Nc4cc(C5CC5)cn(C)c4=O)n(C)c3c2)ccn1 [Example I-103, N-(4-((2-((5-cyclopropyl-1-methyl-2-oxo-1,2-dihydropyridin-3-yl)amino)-1-methyl-1H-imidazo[4,5-b]pyridin-6-yl)oxy)pyridin-2-yl)acetamide]"

# Further lines, the molecule ahead of its results:
row,Compound,Kd
1,"CNC(=O)c1cc(Oc2ccc3nc(Nc4cc(C(C)(C)C)on4)n(C)c3c2)ccn1 [Example I-16, 4-((2-((5-(tert-butyl)isoxazol-3-yl)amino)-1-methyl-1H-benzo[d]imidazol-6-yl)oxy)-N-methylpicolinamide]",50 to 1000 nM
2,"CC(=O)Nc1cc(Oc2ccc3nc(Nc4cc(C(C)(C)C)nn4C)n(C)c3c2)ccn1 [Example I-17, N-(4-((2-((3-(tert-butyl)-1-methyl-1H-pyrazol-5-yl)amino)-1-methyl-1H-benzo[d]imidazol-6-yl)oxy)pyridin-2-yl)acetamide]",50 to 1000 nM
3,"CC(=O)Nc1cc(Oc2ccc3nc(Nc4cc(C(C)(C)C)nn4[C@H]4CCOC4)n(C)c3c2)ccn1 [Example I-19, (S)—N-(4-((2-((3-(tert-butyl)-1-(tetrahydrofuran-3-yl)-1H-pyrazol-5-yl)amino)-1-methyl-1H-benzo[d]imidazol-6-yl)oxy)pyridin-2-yl)acetamide]",50 to 1000 nM
4,"CC(=O)Nc1cc(Oc2ccc3nc(Nc4cc(C(C)(C)C)n([C@H]5CCOC5)n4)n(C)c3n2)ccn1 [Example I-22, (S)—N-(4-((2-((5-(tert-butyl)-1-(tetrahydrofuran-3-yl)-1H-pyrazol-3-yl)amino)-3-methyl-3H-imidazo[4,5-b]pyridin-5-yl)oxy)pyridin-2-yl)acetamide]",< 10 nM
5,"CC(=O)Nc1cc(Oc2ccc3nc(Nc4cc(C(C)(C)C)nn4[C@@H]4CCOC4)n(C)c3c2)ccn1 [Example I-23, (R)—N-(4-((2-((3-(tert-butyl)-1-(tetrahydrofuran-3-yl)-1H-pyrazol-5-yl)amino)-1-methyl-1H-benzo[d]imidazol-6-yl)oxy)pyridin-2-yl)acetamide]",1000 to 5000 nM
6,"CC(=O)Nc1cc(Oc2ccc3nc(Nc4cc(C(C)(C)C)n([C@H]5C[C@@H](O)C5)n4)n(C)c3c2)ccn1 [Example I-30, N-(4-((2-((5-(tert-butyl)-1-((1s,3s)-3-hydroxycyclobutyl)-1H-pyrazol-3-yl)amino)-1-methyl-1H-benzo[d]imidazol-6-yl)oxy)pyridin-2-yl)acetamide]",< 10 nM
7,"CC(=O)Nc1cc(Oc2ccc3nc(Nc4cc(C(F)(F)F)n(CC5CCOCC5)n4)n(C)c3c2)ccn1 [Example I-33, N-(4-((1-methyl-2-((1-((tetrahydro-2H-pyran-4-yl)methyl)-5-(trifluoromethyl)-1H-pyrazol-3-yl)amino)-1H-benzo[d]imidazol-6-yl)oxy)pyridin-2-yl)acetamide]",50 to 1000 nM
8,"CC(=O)Nc1cc(Oc2ccc3nc(Nc4cc(C(F)(F)F)n(C[C@H]5CC[C@H](O)CC5)n4)n(C)c3c2)ccn1 [Example I-38, N-(4-((2-((1-(((1r,4r)-4-hydroxycyclohexyl)methyl)-5-(trifluoromethyl)-1H-pyrazol-3-yl)amino)-1-methyl-1H-benzo[d]imidazol-6-yl)oxy)pyridin-2-yl)acetamide]",50 to 1000 nM
9,"CC(=O)Nc1cc(Oc2ccc3nc(Nc4cc(C(F)(F)F)n(C5CC6(C5)CN(C(C)=O)C6)n4)n(C)c3c2)ccn1 [Example I-39, N-(4-((2-((1-(2-acetyl-2-azaspiro[3.3]heptan-6-yl)-5-(trifluoromethyl)-1H-pyrazol-3-yl)amino)-1-methyl-1H-benzo[d]imidazol-6-yl)oxy)pyridin-2-yl)acetamide]",< 10 nM
10,"CC(=O)Nc1cc(Oc2ccc3nc(Nc4nc5c(s4)CCC(C)(C)C5)n(C)c3c2C)ccn1 [Example I-43, N-(4-((2-((5,5-dimethyl-4,5,6,7-tetrahydrobenzo[d]thiazol-2-yl)amino)-1,7-dimethyl-1H-benzo[d]imidazol-6-yl)oxy)pyridin-2-yl)acetamide]",1000 to 5000 nM
11,"CC(=O)Nc1cc(Oc2ccc3nc(Nc4nc5c(s4)CC(C)(C)CC5)n(C)c3c2C)ccn1 [Example I-44, N-(4-((2-((6,6-dimethyl-4,5,6,7-tetrahydrobenzo[d]thiazol-2-yl)amino)-1,7-dimethyl-1H-benzo[d]imidazol-6-yl)oxy)pyridin-2-yl)acetamide]",50 to 1000 nM
12,"CC(=O)Nc1cc(Oc2ccc3nc(Nc4cc5c(c(C(F)(F)F)c4)CCN(C(C)=O)C5)n(C)c3c2)ccn1 [Example I-46, N-(4-((2-((2-acetyl-5-(trifluoromethyl)-1,2,3,4-tetrahydroisoquinolin-7-yl)amino)-1-methyl-1H-benzo[d]imidazol-6-yl)oxy)pyridin-2-yl)acetamide]",10 to 50 nM
13,"COCCN1C(=O)C(C)(C)c2c1cc(Nc1nc3ccc(Oc4ccnc(NC(C)=O)c4)cc3n1C)cc2C(F)(F)F [Example I-47, N-(4-((2-((1-(2-methoxyethyl)-3,3-dimethyl-2-oxo-4-(trifluoromethyl)indolin-6-yl)amino)-1-methyl-1H-benzo[d]imidazol-6-yl)oxy)pyridin-2-yl)acetamide]",10 to 50 nM
14,"CC(=O)Nc1cc(Oc2ccc3nc(Nc4cc5c(c(C(F)(F)F)c4)C(C)(C)C(=O)N5CCO)n(C)c3c2)ccn1 [Example I-48, N-(4-((2-((1-(2-hydroxyethyl)-3,3-dimethyl-2-oxo-4-(trifluoromethyl)indolin-6-yl)amino)-1-methyl-1H-benzo[d]imidazol-6-yl)oxy)pyridin-2-yl)acetamide]",10 to 50 nM
